# From paper PMC4412257, “2′,6′-Dimethylphenylalanine: A Useful Aromatic Amino Acid Surrogate for Tyr or Phe Residue in Opioid Peptides” (International Journal of Medicinal Chemistry, 2012)
# Assays:
# [1] = tested on: MVD (δ): mouse vas deferens, δ-receptors; assay: isolated mouse vas deferens (MVD) assay; type: cell-based; conditions: Table 1; ratio of IC50 values
# Procedure: The usefulness of Dmp was first investigated as a surrogate for Phe^4 in ENK analogs. The receptor-binding affinities of synthetic analogs were determined using rat brain, as previously reported. […] The D-Dmp replacement of ENK (11) induced significant reduction in binding affinity for both receptors. […] In vitro biological activity of ENK analogs was evaluated using isolated guinea pig ileum (GPI) and mouse vas deferens (MVD) tissue samples, as previously reported. The GPI tissue contains predominantly μ-receptors, while MVD tissue contains δ-receptors. […] In contrast, 11 was devoid of activity in both assays, as expected from the binding data. […] This analog turned out to be a potent μ-antagonist and a weak δ-antagonist. […] The results of 13 are in line with observations that Dmt-D-Phe-NH2 and its C-terminally extended analog are μ-receptor antagonists.
# μ-opioid receptor = conditions: versus [3H]DAMGO, read-out: Receptor binding affinity, Ki ± S.E., μ, cited from earlier work
# δ-opioid receptor = conditions: versus [3H]DT, read-out: Receptor binding affinity, Ki ± S.E., δ, cited from earlier work
substance,measurement,setting,value
"Tyr-Gly-Gly-Phe-Leu [ENK, reference compound]",GPI/MVD,[1],4.64
same,Ki,"μ-opioid receptor; Table 1, rat brain",2.42 ± 0.93 nM
same,Ki,μ-opioid receptor; Table 6,2.42 ± 0.93 nM
same,Ki,"δ-opioid receptor; Table 1, rat brain",1.43 ± 0.71 nM
same,Ki,δ-opioid receptor; Table 6,1.43 ± 0.71 nM

# Read-outs that look alike come from different tables or passages of the source.
